Reference: patent US12303511B2 (priority 2018, dated 2025)

Test system: transgenic C. elegans (tgMOR) that express mammalian MOR
Assay: Thrashing / locomotion of transgenic C. elegans expressing MOR (tgMOR)
Format: in vivo
Details: tgMOR animals, compared with fentanyl

SMILES: CN1CC[C@]23c4c5ccc(O)c4O[C@H]2[C@@H](O)C=C[C@H]3[C@H]1C5 [morphine]
- temporal profile of response: faster response onset and more rapid recovery
